## AlphaSeq binding of Ab-14 light chain variants to a spike HR2 peptide

The target is the same throughout: PDVDLGDISGINAS, from the HR2 region of SARS-CoV-2 spike.

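The parent was found by panning a naive human phage display library on the peptide. The variants were designed computationally from a first round of random CDR variants and then made and measured. Their group label is 14L_En_HC (En: ensemble of fine-tuned language models; HC: hill climbing; a sequence that several methods proposed may carry one label only). The assay is AlphaSeq: two haploid yeast populations carry antibody and antigen on their surface. After mating in shaken culture at 30 °C for 16 h, diploids were selected and their barcode pairs sequenced. A regression on co-assayed BCL2-family reference pairs converts the normalised counts of each replicate to an apparent Kd. The assay was run in six technical replicates.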

Each scFv is VH, the linker GGGGSGGGGSGGGGS, VL, as in the parent Ab-14, and differs from it in the CDRs of the light chain only.
VH: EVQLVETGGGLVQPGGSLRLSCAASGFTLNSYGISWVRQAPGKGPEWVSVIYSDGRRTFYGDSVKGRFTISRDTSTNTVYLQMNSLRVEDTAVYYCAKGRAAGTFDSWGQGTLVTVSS
VL: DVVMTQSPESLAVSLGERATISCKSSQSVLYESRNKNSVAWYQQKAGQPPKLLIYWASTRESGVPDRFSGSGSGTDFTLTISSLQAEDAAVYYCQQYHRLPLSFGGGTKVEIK

Each variant is given by its three light chain CDRs, as the data file delimits them; those of the parent are KSSQSVLYESRNKNSVA, WASTRES, QQYHRLPLS.
The read-out is the apparent dissociation constant on a log10 scale (nM): the lower, the stronger.
Averages over replicates are reported, and they cover detected replicates only.
"n.d." marks a missing value. The strain was present, yet no cells mated with the target were sequenced in that replicate, which points to weak or no binding.
Empty control strains, which show no peptide, gave a signal in 4% of pairings with all light chain designs; the median was 2.64 and 95% of these signals were weaker than 1.59. No background was subtracted. Also given: how often the same scFv was detected with the empty control strains, with their mean in brackets.

| CDR-L1 | CDR-L2 | CDR-L3 | log10 Kd, replicates | mean log10 Kd (nM) | signal with controls |
|---|---|---|---|---|---|
| IISQSMLYESATHNSIA | QQSTREE | QQYHHLPLS | 0.51 1.29 0.53 0.96 1.27 0.70 | 0.88 | 0 of 18 |
| KLPQSTMQESVSKNSVA | ELSTRGS | QQYHRLPLS | 0.63 0.49 0.27 0.43 0.45 0.80 | 0.51 | 0 of 18 |
| TIGQMFNGESRNRNSVA | QASTREY | QSYDRLPLS | 0.97 0.74 0.85 0.54 0.45 0.57 | 0.69 | 2 of 18 (2.86) |
| KLYQSTAMLSRMKNNVA | DLNERER | QQYFRLPLS | 0.47 0.44 0.47 0.25 0.58 0.68 | 0.48 | 0 of 18 |
| NFSQMVLTGMTLKNSVA | HASTREE | QQYHRLPLI | 1.24 1.12 1.32 0.83 1.22 1.08 | 1.14 | 2 of 18 (2.00) |
| KLSQVTHSESRNKNSIA | EMVTREA | QQYDRLPLS | n.d. 1.69 2.08 0.91 1.11 1.89 | 1.53 | 0 of 18 |
| KIGHGLTTEMYNRNSVA | QTETRVS | QHYHRLPLS | 2.33 1.83 1.58 1.48 1.93 2.29 | 1.91 | 0 of 18 |
| MLLQATMYGERNRNSVA | HAATRED | QQYHRLPLI | 1.41 1.56 1.04 0.99 1.05 1.17 | 1.20 | 0 of 18 |
| KLYQSMGYLSRNKDSIA | DMSRREN | QQYHRLPLS | 0.04 -0.34 -0.24 -0.45 -0.48 -0.08 | -0.26 | 0 of 18 |
| QLYAVQDLTTKNSNNVA | EQTTREN | QQYHRLPLS | 0.43 0.82 0.80 0.62 0.49 1.06 | 0.70 | 0 of 18 |
| IISQSVMFEQTLINSVA | NAQTRES | QQYHRLPLS | 1.07 0.86 1.00 1.07 1.05 0.83 | 0.98 | 1 of 18 (2.23) |
| KIGGVTNGISRIKNSVA | EQSTRED | QQYNRLPLS | 0.72 0.49 0.17 -0.30 0.53 0.25 | 0.31 | 0 of 18 |
| TLTQSVMMESHNKNSVA | DLSTRGS | QQYHRLPLS | 0.21 0.60 0.32 0.21 0.06 0.54 | 0.32 | 1 of 18 (4.07) |
| KLSMSTSYESLNRNSVA | ELTTRGG | QQYNRLPLS | 0.92 0.65 0.36 0.29 0.63 0.75 | 0.60 | 1 of 18 (1.49) |
| KLSQVTHSESRNKNSIA | EMVTREV | QQYDRLPLI | 2.07 1.11 0.85 1.53 0.96 2.54 | 1.51 | 1 of 18 (3.18) |
| TLVQSVMGGSRTRNSVA | NAETRYD | QHYHRLPLS | 0.53 0.87 0.89 1.03 0.81 0.83 | 0.83 | 0 of 18 |
| KLSQVTHSESRNKNSIA | EMVTREV | QQYDRLPLV | 1.50 1.11 0.91 0.87 0.99 1.38 | 1.13 | 0 of 18 |
| HISMMVGTKGYTKNSVA | NAETRED | QQYHRLPLS | -0.08 -0.18 -0.06 -0.55 -0.47 -0.34 | -0.28 | 2 of 18 (3.38) |
| ALSQSMDMTSRNKNSVA | DLTVREN | QQYHRLPLS | 0.87 0.38 0.44 0.27 0.19 0.73 | 0.48 | 1 of 18 (2.39) |
| KIYQMTGFQSRNADSIA | DNSTRGR | QQYHRLPLS | n.d. n.d. 2.77 n.d. n.d. 5.13 | 3.95 | 2 of 18 (3.02) |
| IISQSFLGEQHNKNSVA | QTSERGS | QQYDRLPLS | 0.24 0.18 0.06 0.02 0.02 0.29 | 0.13 | 2 of 18 (2.24) |
| KISMSIRYESQAKNSIA | EMTTREE | QSYHRLPLS | 1.13 0.68 1.44 1.68 0.95 1.34 | 1.20 | 0 of 18 |
| IFSQSVMMGNMTRNSVA | QASERFN | QQYDRLPLI | 1.71 2.10 1.17 2.34 1.64 1.15 | 1.69 | 0 of 18 |
| TISQSVNMTSHGKNSVA | QAEMREE | QQYDRLPLS | 1.56 1.54 1.41 1.38 1.69 1.59 | 1.53 | 1 of 18 (2.61) |
| KISQMFTYESTWHNAIA | QTSEREE | QQYHRLPFS | 1.18 1.13 1.07 0.82 0.93 1.27 | 1.07 | 4 of 18 (2.74) |
| QLSAVQDMTSKNKNSVA | EQSTREN | QQYHRLPLS | 0.54 0.50 0.43 -0.08 0.06 0.33 | 0.30 | 0 of 18 |
| KISQLVNFLGKNKNSVA | QMSTREQ | QQYDRLPLS | 0.57 0.51 0.57 0.47 0.59 0.66 | 0.56 | 0 of 18 |
| KLSQYVGGESRNKSSLA | DNSTREN | QQYHRLPLS | 2.66 n.d. 3.42 2.26 n.d. n.d. | 2.78 | 0 of 18 |
| HLSDTVMQGSYYRNSVA | QEQTRAD | QQYHRLPLS | 0.37 0.22 0.72 0.60 0.58 0.75 | 0.54 | 0 of 18 |
| MLSDLNKMGVRNTSSVA | DNSTRGS | QQYDRLPLS | 2.08 2.98 2.39 2.10 2.13 2.84 | 2.42 | 1 of 18 (3.17) |
| TVSQVHEMLHRNKNSVA | DANTRES | QQYDRLPLS | 0.20 0.07 0.04 0.43 0.53 0.17 | 0.24 | 2 of 18 (2.58) |
| HLSQSVDLESVHKNAIA | DLMTRES | QQYHRLPLS | 0.40 0.19 0.09 0.31 0.26 0.14 | 0.23 | 2 of 18 (2.39) |
| TLGASTLEESRNKNSVA | EMSLREE | QSYNRLPLS | 1.71 0.52 1.06 0.35 0.83 1.57 | 1.01 | 2 of 18 (3.62) |
| SISMSMAFLSRNKNSVA | ENSTRES | QQYHRLPLV | n.d. 1.89 1.47 1.63 1.60 1.46 | 1.61 | 0 of 18 |
| QLYAVQDLTSKNSNSVA | EQSTREN | QQYHRLPLS | 0.87 1.11 0.99 0.64 1.11 1.34 | 1.01 | 0 of 18 |
| MLGGTMTWESKAKNSVA | QSNTRAE | QQYHRLPLS | 0.23 0.15 0.13 -0.22 -0.04 0.41 | 0.11 | 2 of 18 (3.01) |
| MFSQLMAYGSRYKNSVA | QASTRED | QQYHYLPLS | 1.69 0.86 1.13 0.60 1.62 0.78 | 1.11 | 0 of 18 |
| IISGSMLMESKHKNSVA | NAETREY | QHYDRLPLS | 2.25 1.37 2.82 2.55 0.92 1.69 | 1.93 | 1 of 18 (2.89) |
| TLGDMVHTESRNKNSIA | DMRTRES | QQYYRLPLS | -0.02 -0.44 -0.09 -0.54 -0.50 0.30 | -0.22 | 0 of 18 |
| KISGQYRYEQLSKNSIA | EVQTRLK | QQYHRLPLS | 2.13 1.08 0.97 0.71 0.89 0.33 | 1.02 | 0 of 18 |
| QLYAVQDMTTKNKNSVA | EQSTREN | QQYHRLPLS | 0.84 1.19 0.92 0.72 0.83 1.15 | 0.94 | 0 of 18 |
| KLSEYAHFESRKKNSVA | ENSTRES | QQYDHLPLS | 0.65 0.85 0.74 1.24 0.69 1.03 | 0.87 | 0 of 18 |
| MFSQLTYTGSRTRNAVA | QASTREN | QQYHHLPLS | 1.14 0.54 0.65 0.86 1.36 1.19 | 0.96 | 0 of 18 |
| TLSDLMHMESRNYNSVA | DLVKRES | QQYHRLPLS | 0.48 -0.04 0.61 -0.05 0.45 0.27 | 0.29 | 0 of 18 |
| KISQMFNVGTKNTNSLA | EMNTRGM | QDYHRLPLS | 1.46 1.42 1.33 1.56 1.70 2.01 | 1.58 | 1 of 18 (3.08) |
| ALGDVTRMESNKKNSIA | DMSNRAS | QQYHRLPLS | 1.82 0.92 1.10 1.10 1.66 1.19 | 1.30 | 0 of 18 |
| KFGQMVLTGSYVKNSVA | QSSTREN | QQYHRLPLS | 0.40 0.70 0.12 -0.03 0.25 0.23 | 0.28 | 1 of 18 (1.81) |
| MFSQSVMMGSFYRNSVA | QTSTRES | QQYDRLPLS | 0.93 0.35 0.11 0.04 0.37 0.53 | 0.39 | 1 of 18 (2.73) |
| TIAQSMLYLSNIKNSIA | QAETRES | QQYHRLPIS | n.d. n.d. n.d. n.d. n.d. n.d. | n.d. | 0 of 18 |

In the paper, a design with two or fewer of six values counts as a poor binder.
Values of this round are not directly comparable with the first-round values of the same sequences.
The parent sequence was in this pool as ten entries: three were never detected, three once, and four in most replicates, with averages from 0.34 to 2.37.

The measurements come from Li et al. 2023 (doi:10.1038/s41467-023-39022-2) through the FLAb antibody collection.